3 compounds from patent US11845759B2, “Opioid compounds and uses thereof” (priority 2018, dated 2023) can be followed below.

Assay [1] concerns the target T1, μ-opioid receptor (Homo sapiens (Human), UniProt P35372). Kind of assay: [35S]GTPγS μ-opioid receptor functional assay. Format: biochemical. A general note: GTPγS resists hydrolysis and so accumulates on activated G proteins.
In assay [2] the target is T1, μ-opioid receptor. Format: binding.

Structures are written as SMILES.

A word on the EC50: it is the concentration that produces a half-maximal response. High values mean a need for much substance, low ones an effect from little substance. In general, Ki refers to the equilibrium dissociation constant of an inhibitor or competing ligand from its target. A lower Ki goes with higher affinity. On μ-opioid receptor [1], `COc1ccc2c3c1OC1C(=O)CCC4(OC(C)=O)C(C2)N(C)CCC314` (centres unmarked) [14-acetyl oxycodone] registered an EC50 of 660 nM. Further, on μ-opioid receptor [2], affinity was put at a Ki of 18 nM and the “Ki compared with that of oxycodone (in words)” value is listed as “lower”.
For orientation: IC50 means the concentration needed to halve the response being measured. Consider `CCCCCCCCCCCC(=O)O[C@@]12CCC(=O)C3Oc4c(OC)ccc5c4[C@@]31CCN(C)[C@@H]2C5` (some centres unmarked) [14-lauroyl oxycodone], for which, at μ-opioid receptor [1], the half-maximal effective concentration (EC50) is 1150 nM and the IC50 worked out at 18800 nM. In addition, at μ-opioid receptor [2], the affinity corresponds to a Ki of 160 nM and the “Ki compared with that of oxycodone (in words)” value is on record as “higher”.
On to `COc1ccc2c3c1O[C@H]1C(=O)CC[C@@]4(O)[C@@H](C2)N(C)CC[C@]314.Cl` [Oxycodone hydrochloride, reference compound], for which the “% Response Agonist” value at μ-opioid receptor [1] (Conc. 3 μM, criteria ≥± 50%) stood at 82%.
